Ab-14 light chain CDR variants: yeast mating affinities

Target: peptide PDVDLGDISGINAS, taken from heptad repeat 2 (HR2) of SARS-CoV-2 spike.

Parent scFv Ab-14: VH joined to VL by the linker GGGGSGGGGSGGGGS. Changes lie in the light chain CDRs alone.
VH: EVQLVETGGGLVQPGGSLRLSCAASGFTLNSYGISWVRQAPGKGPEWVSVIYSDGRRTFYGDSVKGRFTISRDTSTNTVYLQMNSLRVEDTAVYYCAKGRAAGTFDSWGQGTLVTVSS
VL: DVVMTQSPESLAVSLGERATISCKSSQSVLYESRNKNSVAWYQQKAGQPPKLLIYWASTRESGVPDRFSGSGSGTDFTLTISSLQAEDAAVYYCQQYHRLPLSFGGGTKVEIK

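The parent was found by panning a naive human phage display library on the peptide. Variants in AAYL50 differ from the parent at up to three CDR positions; double and triple changes were sampled at random. The assay is AlphaSeq: two haploid yeast populations carry antibody and antigen on their surface. Binding brings cells together so that they mate, and sequencing counts the barcode pairs among the diploids. A regression on co-assayed BCL2-family reference pairs converts the normalised counts of each replicate to an apparent Kd. Mating was done three times.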

Each variant is given by its three light chain CDRs, as the data file delimits them; those of the parent are KSSQSVLYESRNKNSVA, WASTRES, QQYHRLPLS.
Every variant below is changed at N35 of the VL (sequential numbering).
The Kd shown is the geometric mean over detected replicates; a lower Kd is a better binder.
An entry "not detected" has no value in the source: the pair was not observed among the diploids in any replicate. This suggests poor binding but is not conclusive.
Three control strains display no target. For library AAYL50, 18% of the pairings with them gave a signal, with a median of 15 µM and one signal in twenty below 970 nM, so weak values seen in few replicates may be background. Also given: how often the same scFv was detected with the empty control strains.

CDR-L1,CDR-L2,CDR-L3,apparent Kd,seen in,signal with controls
NSSQSVLYTSRCKNSVA,WASTRES,QQYHRLPLS,330 nM,2 of 3,3 of 9
MSSQSVLYKSREKNSVA,WASTRES,QQYHRLPLS,110 nM,3 of 3,1 of 9
KMSQSVLYESRTKNSVA,WASTRES,QQYHRLPES,not detected,0 of 3,0 of 9
KSSQSVLYTFRSKNSVA,WASTRES,QQYHRLPLS,450 nM,3 of 3,2 of 9
KSSQSVLYESRVKNCVC,WASTRES,QQYHRLPLS,360 nM,1 of 3,3 of 9
KSSQSVLYESRKKNYVA,WASTRES,QQAHRLPLS,not detected,0 of 3,0 of 9
KSSQSVLYESRLKNSVT,WASTREI,QQYHRLPLS,11 µM,1 of 3,4 of 9
KSQQSPLYESRFKNSVA,WASTRES,QQYHRLPLS,28 nM,3 of 3,3 of 9
KSSQSVLYESRQKNSPA,WASTRES,QQYHRLPLS,22 µM,2 of 3,3 of 9
KSFSSVLYESRKKNSVA,WASTRES,QQYHRLPLS,not detected,0 of 3,0 of 9
KSSQSVLYESRWFESVA,WASTRES,QQYHRLPLS,33 µM,1 of 3,0 of 9
KSSQSVLYESRMKNSVA,WAKTRES,QQYHSLPLS,1.1 µM,3 of 3,0 of 9
FSSQSVLYESRGKNSVA,WASTRES,QQYHRLPLS,not detected,0 of 3,1 of 9
KTSQSVLYESRTKNSVA,WASTRES,QQYHGLPLS,36 nM,3 of 3,3 of 9
KSSQSVLYESRTKNSVA,WASTRLS,QQYHDLPLS,31 nM,3 of 3,3 of 9
KSSQSVLYESRAKNSVA,WASTRES,QPYHRLSLS,47 nM,3 of 3,0 of 9
KMSQSVLYESRVKNSVA,WANTRES,QQYHRLPLS,1.6 nM,3 of 3,3 of 9
KSSQSVLYELRTKNSVA,WASTRES,QQYHRLPQS,not detected,0 of 3,0 of 9
KSSQSVLYQSRPKNSVA,WASTRES,QQFHRLPLS,130 nM,3 of 3,1 of 9
KSSQSVLYESRKKNSVA,WAVTAES,QQYHRLPLS,92 µM,3 of 3,6 of 9
KWSQSVLYESREKNSVA,WAMTRES,QQYHRLPLS,440 nM,3 of 3,3 of 9
KSEQSVLYESRSKNSVA,AASTRES,QQYHRLPLS,710 nM,1 of 3,2 of 9
KQSQSVLYESRCKNSVA,WASTSES,QQYHRLPLS,not detected,0 of 3,0 of 9
KSSQSVLYESRMKGSVA,WASTFES,QQYHRLPLS,13 µM,1 of 3,0 of 9
KSSQSVLYESRETNSVA,WASTRES,QQGHRLPLS,490 nM,3 of 3,2 of 9
KSSQSVLYESRTKNSVA,WASVREG,QQYHRLPLS,25 nM,3 of 3,5 of 9
VVSQSVLYESREKNSVA,WASTRES,QQYHRLPLS,7.2 nM,3 of 3,1 of 9
KSSQSVLYESREKNHVA,WASTRES,QQYHRLPLC,3.8 µM,2 of 3,1 of 9
KSSKSVLYERRQKNSVA,WASTRES,QQYHRLPLS,380 nM,3 of 3,2 of 9
KSSQSVLYESRTSNSVA,WASTRES,QQYHRLPLS,36 nM,3 of 3,0 of 9
KSSQSVLYESRVKNSEA,WASTRES,QQYHRTPLS,18 µM,1 of 3,5 of 9
KSSQSVLYESRHKNSVA,WASFRES,QQYHRLPLE,92 nM,2 of 3,0 of 9
KSSQQVLYESRPKNSVA,FASTRES,QQYHRLPLS,170 nM,3 of 3,5 of 9
KSFQSVLYESRCKNSVA,WASTRES,QQYHLLPLS,2.9 µM,1 of 3,0 of 9
KSSQSFLYESRRKNSVA,WASTREP,QQYHRLPLS,78 nM,3 of 3,0 of 9
KSSQSVTYESRSKNSVA,WASCRES,QQYHRLPLS,87 nM,3 of 3,9 of 9
KSSQSVLYESFRKNSVA,WASTRES,QQYHRQPLS,230 nM,3 of 3,0 of 9
KSSQSVLYESRSKNSVA,WASTRDS,QQYHRLPLC,7.6 nM,3 of 3,0 of 9
KSSQSVLYESRFKNSVA,WESFRES,QQYHRLPLS,1.6 µM,1 of 3,0 of 9
KSSQSVLYESRIKNSVA,WASTREC,QQYHRLPLS,52 nM,3 of 3,1 of 9
KYSQEVLYESRLKNSVA,WASTRES,QQYHRLPLS,3.4 nM,3 of 3,2 of 9
KSSQSVRYESRYKNTVA,WASTRES,QQYHRLPLS,27 µM,3 of 3,8 of 9
KFSQSVLYESRTKNSVA,WASTRES,QQYHRLYLS,47 nM,3 of 3,0 of 9
KSSQSVLYVSRTSNSVA,WASTRES,QQYHRLPLS,11 µM,2 of 3,4 of 9
KSSQSVLYESREKNSVA,WASTVES,QQYHRLPLS,88 µM,3 of 3,4 of 9
KSSDSVLYESREKNSVI,WASTRES,QQYHRLPLS,2.9 µM,1 of 3,3 of 9
KSSQSVLRESRIKNSVA,WASTRES,QQYHRLPSS,2.1 µM,3 of 3,3 of 9
KSSQSVLYESRRKNSVA,WVSTRES,QQYHRIPLS,24 µM,2 of 3,1 of 9
KSSQSVVYESRTKNSVA,WASTREL,QQYHRLPLS,310 nM,2 of 3,2 of 9
KSSQSVLYESRDKNSVA,WFSTRES,QQHHRLPLS,450 µM,1 of 3,3 of 9
KSSGSVLYESRGKNSVA,WCSTRES,QQYHRLPLS,6.1 µM,3 of 3,2 of 9

Values reported by Engelhart et al. 2022, doi:10.1038/s41597-022-01779-4 (FLAb copy).